This assay deals with IRAK4 (Homo sapiens (Human), UniProt Q9NWZ3). Nature of the assay: IRAK4 Inhibition Assay. The conditions noted are these: ATP 500 μM. The class given is biochemical. How it is done:
The assays were performed in U-bottom 384-well plates. […] The reaction was initiated by the combination of IRAK4 with substrates and test compounds. The reaction mixture was incubated at room temperature for 60 min. and terminated by adding 45 μL of 35 mM EDTA to each sample. The reaction mixture was analyzed on the Caliper LABCHIP® 3000 (Caliper, Hopkinton, Mass.) by electrophoretic separation of the fluorescent substrate and phosphorylated product.

The chains behind the UniProt entries cited, without tags or fusion partners.
UniProt Q9NWZ3, whole entry, species assumed: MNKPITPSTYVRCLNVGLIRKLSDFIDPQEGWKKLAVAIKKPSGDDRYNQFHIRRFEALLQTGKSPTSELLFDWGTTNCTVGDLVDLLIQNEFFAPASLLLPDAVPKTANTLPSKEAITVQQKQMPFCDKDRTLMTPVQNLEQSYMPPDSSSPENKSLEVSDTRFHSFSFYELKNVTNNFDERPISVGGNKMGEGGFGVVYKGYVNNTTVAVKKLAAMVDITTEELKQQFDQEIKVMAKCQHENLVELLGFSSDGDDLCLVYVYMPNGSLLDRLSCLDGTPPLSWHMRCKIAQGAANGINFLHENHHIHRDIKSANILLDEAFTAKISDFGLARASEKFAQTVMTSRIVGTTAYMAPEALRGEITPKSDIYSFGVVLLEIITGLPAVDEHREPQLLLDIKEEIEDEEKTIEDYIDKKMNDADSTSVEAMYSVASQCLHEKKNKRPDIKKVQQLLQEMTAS

Counter-ions that a name gives are not always drawn.

One may read the IC50 as the concentration at which inhibition is half-maximal. As to `CC(C)(O)[C@H](F)CNC(=O)c1cnc(-n2ncc3cc(Cl)cnc32)cc1N[C@@H]1C[C@H]1CO` (single isomer, unassigned) [Example 646], the IC50 (IRAK4 0.6 nM) stood at 10.5 nM.

`CC(C)(O)[C@H](F)CNC(=O)c1cnc(-n2ncc3cncnc32)cc1NC1CC1` [Example 134, (R)-4-(cyclopropylamino)-N-(2-fluoro-3-hydroxy-3-methylbutyl)-6-(1H-pyrazolo[3,4-d]pyrimidin-1-yl)nicotinamide]: the half-maximal inhibitory concentration (IC50) (IRAK4 Inhibition Assay) is 6.9 nM.

Consider `CC(C)(O)[C@H](F)CNC(=O)c1cnc(-n2ncc3cc(F)cnc32)cc1NC1CCC(O)C1` (single isomer, unassigned) [Example 610], for which, for the setting “IRAK4 0.6 nM”, the IC50 is 8.9 nM.

For the compound `CC(C)Nc1cc(-n2ccc3cc(C#N)cnc32)ncc1C(=O)NC[C@@H](F)C(C)O` (single isomer, unassigned) [Example 48], the half-inhibitory concentration (IC50) (IRAK4 Inhibition Assay) is 1.4 nM. Same read-out and setting: for `CC(C)(O)[C@H](F)CNC(=O)c1cnc(-n2ccc3cc(C#N)cnc32)cc1NC1CCC(O)C1` (single isomer, unassigned) [Example 24] the value was 1.4 nM. Still for that read-out and setting: under `CC(C)Nc1cc(-n2ccc3cc(C#N)cnc32)ncc1C(=O)N[C@H]1CC[C@H]([N+](=O)[O-])CC1` [Example 95, 6-(5-cyano-1H-pyrrolo[2,3-b]pyridin-1-yl)-4-(isopropylamino)-N-((trans)-4-nitrocyclohexyl)nicotinamide] stands 5.1 nM. Turning to `CC(C)Nc1cc(-n2ccc3cc(C#N)cnc32)ncc1C(=O)NC1CCC(C(C)(O)C2CC2)CC1` (stereo not drawn) [Example 446], the IC50 (IRAK4 0.6 nM) is 3.9 nM.

As for `CC(C)(O)[C@H](F)CNC(=O)c1cnc(-n2ccc3cc(C#N)cnc32)cc1N[C@@H]1COC[C@H]1F` (single isomer, unassigned) [Example 459], the IC50 (IRAK4 0.6 nM) came to 4.9 nM. For the compound `CCCNc1cc(-n2ncc3cc(C#N)cnc32)ncc1C(=O)NC[C@@H](F)C(C)(C)O` [Example 592], for the setting “IRAK4 0.6 nM”, the 50% inhibitory concentration (IC50) came to 2.8 nM. For `CC(C)(O)[C@H](F)CNC(=O)c1cnc(-n2ccc3cc(C#N)cnc32)cc1NC1CCC(O)C1` (single isomer, unassigned) [Example 27], for the setting “IRAK4 Inhibition Assay”, the half-inhibitory concentration (IC50) was 1.6 nM. On to `CNC(=O)[C@H]1CC[C@H](NC(=O)c2cnc(-n3ccc4cc(C#N)cnc43)cc2NC2CCOCC2)CC1` [Example 86, 6-(5-cyano-1H-pyrrolo[2,3-b]pyridin-1-yl)-N-((trans)-4-(methylcarbamoyl)cyclohexyl)-4-((tetrahydro-2H-pyran-4-yl)amino)nicotinamide], for which the IC50 (IRAK4 Inhibition Assay) was determined as 7.1 nM. The same measure, in the same setting: for `CC(Nc1cc(-n2ncc3cc(C#N)cnc32)ncc1C(=O)NC[C@@H](F)C(C)(C)O)C(F)(F)F` (stereo partly drawn) [Example 297] the value was 4.1 nM.

Turning to `COC(C)(C)[C@H](F)CNC(=O)c1cnc(-n2ccc3cc(C#N)cnc32)cc1NC(C)C` [Example 434], the IC50 (IRAK4 0.6 nM) was determined as 1.6 nM. In the case of `CC(C)Nc1cc(-n2ncc3cc(C#N)cnc32)ncc1C(=O)NCC1CCS(=O)(=O)C1` (stereo not drawn) [Example 209], for the setting “IRAK4 Inhibition Assay”, the 50% inhibitory concentration (IC50) is 15.3 nM. On to `CC(C)Nc1cc(-n2ccc3cc(CNC(=O)CC(C)(C)O)cnc32)ncc1C(=O)NC[C@@H](F)C(C)(C)O` [Example 499], for which the half-inhibitory concentration (IC50) (IRAK4 0.6 nM) is 6.1 nM. The same measure, in the same setting: for `CC(C)(O)[C@H](F)CNC(=O)c1cnc(-n2ncc3cc(F)cnc32)cc1NC1CCC(O)C1` (mixture of isomers) [Example 611] the value was 17.4 nM; for `[2H]C([2H])([2H])OC(C)(C)[C@H](F)CNC(=O)c1cnc(-n2ccc3cc(C#N)cnc32)cc1NC(C)C` [Example 442], 1.5 nM; for `CC(C)(O)[C@H](F)CNC(=O)c1cnc(-n2ncc3cc(C#N)cnc32)cc1NC1CCC(F)C1` (stereo partly drawn) [Example 626], 1.1 nM. Take `CC(F)CCNc1cc(-n2ncc3cc(C#N)cnc32)ncc1C(=O)NC[C@@H](F)C(C)(C)O` (stereo partly drawn) [Example 604]: the IC50 (IRAK4 0.6 nM) turned out to be 6.1 nM. With `CC(C)Nc1cc(-n2ncc3cc(C#N)cnc32)ncc1C(=O)N[C@H]1CC[C@H](NC(=O)[C@H](C)O)CC1` [Example 274], the IC50 (IRAK4 Inhibition Assay) was 6.2 nM. Same read-out and setting: under `CC(C)(O)[C@H](F)CNC(=O)c1cnc(-n2ccc3cc(C#N)cnc32)cc1NC1CCC(O)C1` (single isomer, unassigned) [Example 26] stands 2.5 nM.

On to `CC(C)(O)[C@H](F)CNC(=O)c1cnc(-n2ncc3cc(C#N)cnc32)cc1N[C@@H]1CCOC1` [Example 548], for which the half-inhibitory concentration (IC50) (IRAK4 0.6 nM) stood at 10.6 nM. Still for that read-out and setting: under `CC(C)(O)[C@H](F)CNC(=O)c1cnc(-n2ncc3cc(C#N)cnc32)cc1N[C@H]1CCOC1` [Example 545, 6-(5-Cyano-1H-pyrazolo[3,4-b]pyridin-1-yl)-N—((R)-2-fluoro-3-hydroxy-3-methylbutyl)-4-(((S)-tetrahydrofuran-3-yl)amino)nicotinamide, TFA salt] stands 8.7 nM. Take `CC(C)Nc1cc(-n2ccc3cc(C#N)cnc32)ncc1C(=O)NC[C@@H](F)C(C)O` (single isomer, unassigned) [Example 49]: under “IRAK4 Inhibition Assay”, the half-maximal inhibitory concentration (IC50) was 3.2 nM. On to `CC(C)Nc1cc(-n2ccc3cc(C#N)cnc32)ncc1C(=O)NC1CCC(C(C)(O)C2CC2)CC1` (stereo not drawn) [Example 444], for which the IC50 (IRAK4 0.6 nM) came to 4.6 nM. Regarding `CC(C)Nc1cc(-n2ncc3cc(Cl)c(N)nc32)ncc1C(=O)NC[C@@H](F)C(C)(C)O` [Example 282], the IC50 (IRAK4 Inhibition Assay) was 4.1 nM. Same read-out and setting: for `CC(C)(O)[C@H](F)CNC(=O)c1cnc(-n2ccc3cc(C#N)cnc32)cc1NC1CCC(O)C1` (single isomer, unassigned) [Example 25] the value was 1.5 nM. As to `CC(O)CCNc1cc(-n2ncc3cc(C#N)cnc32)ncc1C(=O)NC[C@@H](F)C(C)(C)O` (single isomer, unassigned) [Example 572], the IC50 (IRAK4 0.6 nM) was determined as 9.1 nM. The same measure, in the same setting: under `CC(O)CCNc1cc(-n2ncc3cc(C#N)cnc32)ncc1C(=O)NC[C@@H](F)C(C)(C)O` (single isomer, unassigned) [Example 573] stands 8.8 nM; under `CC(C)(O)[C@H](F)CNC(=O)c1cnc(-n2ccc3cc(C#N)cnc32)cc1N[C@@H]1COC[C@H]1F` (single isomer, unassigned) [Example 458], 7.1 nM.

For the origin of these results see US9169252B2 (BRISTOL-MYERS SQUIBB COMPANY, priority 2014, dated 2015).
